# Source: BindingDB's records for doi:10.1016/j.bmcl.2013.03.113 (Vanderbilt University Medical Center, 2013)
# Target: T1, Bone morphogenetic protein 4 (Mus musculus, UniProt P21275)
# T1 sequence (P21275 whole entry): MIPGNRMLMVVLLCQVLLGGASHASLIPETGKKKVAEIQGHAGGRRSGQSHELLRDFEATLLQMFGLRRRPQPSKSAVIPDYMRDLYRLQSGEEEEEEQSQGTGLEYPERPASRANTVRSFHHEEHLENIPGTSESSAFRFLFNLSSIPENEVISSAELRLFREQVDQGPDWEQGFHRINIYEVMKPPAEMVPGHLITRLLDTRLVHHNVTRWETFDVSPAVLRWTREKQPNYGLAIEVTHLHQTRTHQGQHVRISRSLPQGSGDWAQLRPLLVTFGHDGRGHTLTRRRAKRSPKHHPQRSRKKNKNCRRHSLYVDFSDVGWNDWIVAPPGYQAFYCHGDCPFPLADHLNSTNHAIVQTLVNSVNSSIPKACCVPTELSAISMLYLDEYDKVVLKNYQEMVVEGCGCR
# Experiment: Inhibition of BMP4 in mouse C2C12BRA cells after 14 hrs by luciferase reporter gene assay
row,IC50,Compound
1,6730 nM,COc1ccc(-c2cnc3c(-c4cncc5ccccc45)cnn3c2)cc1
2,2640 nM,c1ccc2c(-c3cnn4cc(-c5ccc(N6CCNCC6)cc5)cnc34)csc2c1
3,246 nM,Clc1cc(-c2cnn3cc(-c4ccc(N5CCNCC5)cc4)cnc23)ccn1
